Reference: PubChem BioAssay AID1053197 (The Scripps Research Institute Molecular Screening Center, 2014)
The list shows a part of the results, in another mix than the full data. Active and inactive are the calls of the source.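 The calls were made as follows: active = inhibition above a cutoff: mean of compounds within the control limits plus 3 SD of those (cut at about 17% in these data); inactive = the rest.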

The chains behind the UniProt entries cited, without tags or fusion partners.
UniProt Q9HAT2, whole entry: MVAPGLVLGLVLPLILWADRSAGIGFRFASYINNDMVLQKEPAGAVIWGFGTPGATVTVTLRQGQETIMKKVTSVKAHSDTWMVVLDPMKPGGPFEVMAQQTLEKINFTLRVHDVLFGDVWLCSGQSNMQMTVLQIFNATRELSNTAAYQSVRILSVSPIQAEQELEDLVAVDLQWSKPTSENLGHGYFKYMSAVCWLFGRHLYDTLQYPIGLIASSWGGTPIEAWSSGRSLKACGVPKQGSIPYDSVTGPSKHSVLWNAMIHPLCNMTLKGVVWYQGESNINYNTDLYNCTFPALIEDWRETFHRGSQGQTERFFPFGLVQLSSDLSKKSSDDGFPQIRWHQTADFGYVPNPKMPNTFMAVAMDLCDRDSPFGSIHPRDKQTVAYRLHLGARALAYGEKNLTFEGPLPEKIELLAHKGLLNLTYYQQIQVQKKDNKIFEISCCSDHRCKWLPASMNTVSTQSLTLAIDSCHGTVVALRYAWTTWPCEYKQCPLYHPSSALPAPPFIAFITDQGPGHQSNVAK

What follows are molecules tested against Sialate O-acetylesterase (Homo sapiens) (UniProt Q9HAT2) (assay: blockers of sialate O-acetylesterase activity-probe labeling – biochemical, fluorescence polarization, FP-Rh probe, 1536-well HTS, primary screen (AID 1053197;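 also: 0% = plate median of compound wells and 100% = probe without SIAE protein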)). Conditions: SIAE FP-Rh probe binding, at 9.66 µM, stronger effect = higher value.

Structure (SMILES)	inhibition
CCC(c1nnnn1C1CCCCC1)N1CCC(n2c(=O)[nH]c3ccccc32)CC1 (configuration not stated)	inactive: -5.07%
COc1cccc(C(c2nnnn2C2CCCCC2)N2CCC(n3c(=O)[nH]c4ccccc43)CC2)c1OC (configuration not stated)	inactive: -0.13%
CC(=O)N(c1ccccc1)C1CCNCC1	inactive: 7.13%
COc1cc(OC)cc(C(=O)NCC2(N3CCCCC3)CCCCC2)c1	inactive: 1.25%
O=c1[nH]c2ccccc2n1C1CCN(C(c2ccnc3ccccc23)c2nnnn2C2CCCCC2)CC1 (configuration not stated)	inactive: -6.19%
Fc1ccccc1NC1CCN(Cc2ccccc2)CC1	inactive: -6.5%
Cc1ccc(C(=O)NCC2(N3CCCCC3)CCCCC2)o1	inactive: 2.4%
Cc1ccc(NC2(C#N)CCN(Cc3ccccc3)CC2)cc1	inactive: 0.74%
CCN1CCC(Nc2cccc(F)c2)CC1	inactive: -3%
COc1ccc(C(c2nnnn2C2CCCCC2)N2CCC(n3c(=O)[nH]c4ccccc43)CC2)cc1 (configuration not stated)	inactive: -4.56%
CC(C)(C)n1nnnc1C(c1ccnc2ccccc12)N1CCC(n2c(=O)[nH]c3ccccc32)CC1 (configuration not stated)	inactive: -3.71%
Cc1ccccc1NC1(C#N)CCN(Cc2ccccc2)CC1	inactive: -0.67%
CN(C)c1ccc(C(=O)NCC2(N3CCCCC3)CCCCC2)cc1	inactive: 5.74%
Cn1c(=O)[nH]cc(N(CCCl)CCCl)c1=O	inactive: 4.75%
O=C(NCC1(N2CCCCC2)CCCCC1)c1ccco1	inactive: -15.7%
CN1CCC(Nc2ccc(F)c(Cl)c2)CC1	inactive: 0.83%
CCOc1ncccc1C(=O)NCC1(N2CCOCC2)CCCCC1	inactive: -3.53%
NN(c1ccccc1)C1CCN(CCc2ccccc2)CC1	inactive: 2.56%
O=C(O)C1(Nc2ccccc2)CCN(Cc2ccccc2)CC1	inactive: 3.75%
CC(C)(C)OC(=O)N1CCC(Nc2ccccc2)CC1	inactive: -1.21%
O=c1[nH]c2ccccc2n1C1CCN(C(c2cc3ccccc3o2)c2nnnn2C2CCCC2)CC1 (configuration not stated)	inactive: -3.23%
CCCOc1ccc(C(=O)NCC2(N(C)C)CCCCC2)cc1	inactive: 3.23%
COc1cccc(C(=O)N(c2cc(C)cc(C)c2)C2CCN(C(=O)OC(C)(C)C)CC2)c1	inactive: 5.75%
COc1cc(OC)cc(C(=O)NCC2(N3CCOCC3)CCCCC2)c1	inactive: -1.21%
COc1cccc(C(c2nnnn2C2CCCC2)N2CCC(n3c(=O)[nH]c4ccccc43)CC2)c1OC (configuration not stated)	inactive: -2.03%
CCC(CO)(C(=O)OC1CN2CCC1CC2)c1ccccc1 (configuration not stated)	inactive: 2.82%
CN1CCC(Nc2ccc(Cl)cc2)CC1	inactive: 9.3%
